The target in experiment [1] is PTH receptor present on the SaOS-2 (human osteosarcoma cells) (human (SaOS-2 human osteosarcoma cells)) (UniProt Q03431).
For experiment [2] the target is unchanged. The experiment in a line: displacement of mono-125I-[Nle8,18,Tyr34(3-125I)]bPTH(1-34)NH2 from SaOS-2 cells; Kd defined as half maximal inhibition.

Drawing on patent publication USRE40850E1, this text covers EC50 (half maximal stimulation of adenylate cyclase, cAMP synthesis in SaOS-2 cells) and Kd for 11 substances.

By Kd is commonly meant the free concentration of one partner at which half of the binding sites on the other are occupied at equilibrium, for simple one-to-one binding. Higher therefore signals a looser complex.

Take “[Ahc^22, Leu^23,28,31, Glu^25, Lys^26,30, Aib^29]hPTHrP(1-34)NH2 (from UniProt P12272) (peptide)”: in experiment [1], the EC50 (half maximal stimulation of adenylate cyclase, cAMP synthesis in SaOS-2 cells) amounted to 0.3 nM.

In experiment [1], “[Cha^22, Ahc^23, Glu^25, Lys^26,30, Leu^28,31, Aib^29]hPTHrP(1-34)NH2 (from UniProt P12272) (peptide)” came in with an EC50 (half maximal stimulation of adenylate cyclase, cAMP synthesis in SaOS-2 cells) of 0.4 nM.

On to “[Cha^22, Leu^23,28,31, Glu^25, Lys^26,30, Ahc^27, Aib^29]hPTHrP(1-34)NH2 (from UniProt P12272) (peptide)”, for which the EC50 (half maximal stimulation of adenylate cyclase, cAMP synthesis in SaOS-2 cells) in experiment [1] turned out to be 2 nM. The same substance gave a dissociation constant (Kd) in experiment [2] of 60 nM.

For the substance “[Glu^22,25,29, Leu^23,28,31, Lys^26, Ahc^30]hPTHrP(1-34)NH2 (from UniProt P12272) (peptide)”, the EC50 (half maximal stimulation of adenylate cyclase, cAMP synthesis in SaOS-2 cells) in experiment [1] came to 20 nM. Besides, the Kd in experiment [2] was 230 nM.

For the substance “[Glu^22,25, Ahc^23, Lys^26,30, Leu^28,31, Aib^29]hPTHrP(1-34)NH2 (from UniProt P12272) (peptide)”, in experiment [1], the EC50 (half maximal stimulation of adenylate cyclase, cAMP synthesis in SaOS-2 cells) is 3.9 nM. Also, in experiment [2], the Kd was found to be 70 nM.

For the substance “[Glu^22,25, Leu^23,28,31, Ahc^24, Lys^26,30, Aib^29]hPTHrP(1-34)NH2 (from UniProt P12272) (peptide)”, the EC50 (half maximal stimulation of adenylate cyclase, cAMP synthesis in SaOS-2 cells) in experiment [1] turned out to be 0.5 nM. The same substance returned a dissociation constant (Kd) in experiment [2] of 6 nM.

As to “[Glu^22,25, Leu^23,28,31, Lys^26,30, Ahc^27, Aib^29]hPTHrP(1-34)NH2 (from UniProt P12272) (peptide)”, the EC50 (half maximal stimulation of adenylate cyclase, cAMP synthesis in SaOS-2 cells) in experiment [1] was found to be 3 nM. In experiment [2], this substance had a Kd of 230 nM.

In experiment [1], “[Glu^22,25, Leu^23,28, Lys^26,30, Aib^29, Ahc^31]hPTHrP(1-34)NH2 (from UniProt P12272) (peptide)” came in with an EC50 (half maximal stimulation of adenylate cyclase, cAMP synthesis in SaOS-2 cells) of 3.7 nM. In addition, the Kd in experiment [2] is 200 nM.

With “[Glu^22,25, Leu^23,31, Lys^26,30, Ahc^28, Aib^29]hPTHrP(1-34)NH2 (from UniProt P12272) (peptide)”, in experiment [1], the EC50 (half maximal stimulation of adenylate cyclase, cAMP synthesis in SaOS-2 cells) was determined as 0.5 nM.

Substance “[Glu^22,29, Leu^23,28,31, Aib^25, Lys^26,30, Ahc^27]hPTHrP(1-34)NH2 (from UniProt P12272) (peptide)” showed an EC50 (half maximal stimulation of adenylate cyclase, cAMP synthesis in SaOS-2 cells) in experiment [1] of 5 nM.

In experiment [1], “[Glu^22, Leu^23,28,31, Aib^25,29, Lys^26,30, Ahc^27]hPTHrP(1-34)NH2 (from UniProt P12272) (peptide)” came in with an EC50 (half maximal stimulation of adenylate cyclase, cAMP synthesis in SaOS-2 cells) of 2 nM.
